Measurements published in PubChem BioAssay AID651719 (The Scripps Research Institute Molecular Screening Center, 2012).
The list shows a part of the results, in another mix than the full data. Some tests of the compounds listed are not included; inactive here does not mean inactive elsewhere. The source made the active and inactive calls.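 The calls were made as follows: active = inhibition above the screen-wide average plus 3 SD (cut at about 13% in these data); inactive = the rest.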

Sequences of proteins named here, by UniProt entry; tags and fusion partners are left off. Residues count along the entry.
UniProt O60755, 1-299 limits assumed: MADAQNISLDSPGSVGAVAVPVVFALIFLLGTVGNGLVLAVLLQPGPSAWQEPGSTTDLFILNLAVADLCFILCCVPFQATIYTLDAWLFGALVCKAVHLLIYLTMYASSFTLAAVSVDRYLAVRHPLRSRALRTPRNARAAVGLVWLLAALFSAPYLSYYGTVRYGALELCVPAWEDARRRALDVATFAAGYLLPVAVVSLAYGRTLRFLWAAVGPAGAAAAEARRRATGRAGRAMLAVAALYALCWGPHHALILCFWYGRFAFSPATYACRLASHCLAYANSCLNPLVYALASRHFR

Target: Galanin receptor type 3 (Homo sapiens) (UniProt O60755)
Assay: GalR3 antagonists in HEK293 cells, primary screen, cell-based, fluorescence readout (AID 651719);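 also: forskolin and galanin both at EC90 stimulate the cells; cAMP rise reported by CNG channel membrane potential dye signal; 0% = forskolin plus galanin with DMSO and 100% = forskolin alone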
Conditions: HEK293 GalR3-CNG cAMP membrane potential fluorescence; at 3 µM; hits give high values; galR3 body fused to GalR1 C-terminus

Row | Structure (SMILES) | inhibition
1 | CC(C)N1C(=O)CC2(CCN(CCOC(=O)C(O)(c3ccccc3)c3ccccc3)CC2)C1=O | inactive: -2.33%
2 | CCN(CC)CC(C)C(C)OC(=O)C(O)(c1ccccc1)c1ccccc1 (stereo unspecified) | inactive: 0.72%
3 | COc1cc(SC)ccc1C(=O)NCC1(N(C)C)CCCCC1 | inactive: -8.15%
4 | Cc1ccc(C(=O)NCC2(N3CCCCC3)CCCCC2)cc1 | inactive: -4.69%
5 | O=C(NCC1(N2CCCCC2)CCCCC1)c1cc([N+](=O)[O-])ccc1Cl | inactive: 3.78%
6 | CN1[C@@H]2CC[C@H]1CC(OC(=O)C(O)(c1ccccc1)c1ccccc1)C2 (stereo partly specified) | inactive: -8.35%
7 | C=CCN1CCN(CCOC(=O)C(O)(c2ccccc2)c2ccccc2)CC1 | inactive: -7.07%
8 | O=C(NCC1(N2CCCCC2)CCCCC1)c1cc(F)c(F)cc1Cl | inactive: -6.35%
9 | Cc1cc(C(=O)NCC2(N3CCCCC3)CCCCC2)ccc1[N+](=O)[O-] | inactive: -8.07%
10 | CCN1CCCC(OC(=O)C2(O)c3ccccc3C=Cc3ccccc32)C1 (stereo unspecified) | inactive: -1.15%
11 | O=C(NCC1(N2CCCCC2)CCCCC1)c1cccc(Br)c1 | inactive: -5.96%
12 | COc1ccc(C(=O)NCC2(N(C)C)CCCCC2)cc1 | inactive: 1.56%
13 | Cc1ccccc1C(=O)NCC1(N2CCCCC2)CCCCC1 | inactive: -6.41%
14 | CN(C)C1CCCC1OC(=O)C(O)(c1ccccc1)c1ccccc1 (stereo unspecified) | inactive: -2.72%
15 | CN(C)c1ccc(C(=O)NCC2(N(C)C)CCCCC2)cc1 | inactive: -3.57%
16 | COc1cccc(C(=O)NCC2(N3CCCCC3)CCCCC2)c1 | inactive: -2.36%
17 | COc1ccc(Cl)cc1C(=O)NCC1(N(C)C)CCCCC1 | inactive: -11.4%
18 | O=C(NCC1(N2CCCCC2)CCCCC1)c1cccc(Cl)c1 | inactive: 0.35%
19 | CN(C)C1(CNC(=O)c2ccc(Br)cc2)CCCCC1 | inactive: 3.22%
20 | COc1cc(C(=O)NCC2(N(C)C)CCCCC2)c([N+](=O)[O-])cc1OC | inactive: -8.66%
21 | COc1ccc(Br)c(C(=O)NCC2(N3CCCCC3)CCCCC2)c1 | inactive: -2.02%
22 | C=C(C)C#CC(O)(C(=O)OC1CCN(C)CC1)c1ccccc1 (stereo unspecified) | inactive: 2.03%
23 | CN(C)c1cccc(C(=O)NCC2(N(C)C)CCCCC2)c1 | inactive: 0.32%
24 | CC(C)Oc1ccc(C(=O)NCC2(N(C)C)CCCCC2)cc1 | inactive: -10.7%
25 | O=C(OCCN1CCCC1)C(O)(c1ccccc1)c1ccccc1 | inactive: -5.66%
26 | O=C(OC1CN2CCC1CC2)C(CO)(c1ccccc1)c1ccccc1 (stereo unspecified) | inactive: -4.04%
